Key:
[1] = system: Monocotyledonous and dicotyledonous weed; test: Pre-emergence test on weeds (greenhouse, sprayed immediately after sowing); details: fresh weight control rate; for activity level of plant damage (growth control rate), Setaria viridis / activity level of plant damage (growth control rate), Descurainia sophia / activity level of plant damage (growth control rate), Digitaria sanguinalis / activity level of plant damage (growth control rate), Lolium multiflorum: after 4 weeks in greenhouse
Zea mays = test: Pre-emergence test, crop damage (greenhouse, sprayed immediately after sowing); details: Dosage 240 g a.i./ha, after 4 weeks in greenhouse, fresh weight control rate
Text: Monocotyledonous and dicotyledonous weed seeds as well as major crop seeds were placed in plastic pots filled with soil and then covered with 0.5-2 cm of soil. The test compounds of the present invention were individually dissolved with acetone, then added with Tween® 80, diluted with certain amount of water to obtain solutions of certain concentrations, and sprayed immediately after sowing. After drug application, the experimental results on weeds were observed after 4 weeks of cultivation in a greenhouse. Table 3 Results of pre-emergence test on weeds

[2] = system: Monocotyledonous and dicotyledonous weed; test: Post-emergence test on weeds (greenhouse, spray tower); details: after 3 weeks of cultivation in a greenhouse, fresh weight control rate
[3] = sprayed immediately after sowing, 240 g a.i./ha, observed after 4 weeks in greenhouse

| Compound | activity level of plant damage (growth control rate), Setaria viridis ([1]; Dosage 240 g a.i./ha) | Digitaria sanguinalis, activity level of plant damage (growth control rate) ([2]; Dosage 60 g a.i./ha) | Echinochloa crus-galli, activity level of plant damage (growth control rate) ([2]; Dosage 60 g a.i./ha) | activity level of plant damage (growth control rate), Digitaria sanguinalis ([1]; Dosage 240 g a.i./ha) | activity level of plant damage (growth control rate), Lolium multiflorum ([1]; Dosage 240 g a.i./ha) | activity level (growth control rate), Digitaria sanguinalis [1, 3] | activity level (growth control rate), Setaria viridis [1, 3] | other results |
| --- | --- | --- | --- | --- | --- | --- | --- | --- |
| C=C[C@]1(C(=O)N[C@@H](CC2CC2)C(=O)N(C)OC)CC(c2cc(F)cc(F)c2)=NO1 | 9 |  |  |  |  |  |  | activity level of plant damage (growth control rate), Zea mays (Zea mays): 0 |
| C=C(C)[C@]1(C(=O)N[C@@H](C)C(=O)NOC(C)C)CC(c2cc(F)cc(F)c2)=NO1 | 9 | 8 (Level 8: growth control rate greater than or equal to 90% and less than 100%) | 6 (Level 6: growth control rate greater than or equal to 70% and less than 80%) | 9 | 9 |  |  | activity level of plant damage (growth control rate), Descurainia sophia ([1]; Dosage 240 g a.i./ha): 9 |
| C=C(C)[C@]1(C(=O)N[C@@H](CC)C(=O)NOC)CC(c2cc(Cl)cc(Cl)c2)=NO1 |  | 8 (Level 8: growth control rate greater than or equal to 90% and less than 100%) | 6 (Level 6: growth control rate greater than or equal to 70% and less than 80%) |  |  | 9 | 9 |  |
| C=C(C)[C@]1(C(=O)N[C@@H](C)C(=O)NOCC2CC2)CC(c2cc(F)cc(Cl)c2)=NO1 |  | 8 (Level 8: growth control rate greater than or equal to 90% and less than 100%) | 8 (Level 8: growth control rate greater than or equal to 90% and less than 100%) |  |  | 9 | 9 |  |
| C=C(C)[C@]1(C(=O)N[C@@H](C)C(=O)NOCc2cnccn2)CC(c2cc(F)cc(F)c2)=NO1 |  | 8 (Level 8: growth control rate greater than or equal to 90% and less than 100%) | 6 (Level 6: growth control rate greater than or equal to 70% and less than 80%) |  |  | 8 (Level 8: growth control rate greater than or equal to 90% and less than 100%) | 9 | activity level of plant damage (growth control rate), Triticum aestivum ([1]; crop Triticum aestivum, sprayed immediately after sowing, 240 g a.i./ha, observed after 4 weeks in greenhouse): 0 |
| C=C(C)[C@]1(C(=O)N[C@@H](C)C(=O)NOCC(N)=O)CC(c2cc(F)cc(F)c2)=NO1 |  | 8 (Level 8: growth control rate greater than or equal to 90% and less than 100%) | 8 (Level 8: growth control rate greater than or equal to 90% and less than 100%) |  |  | 9 | 9 | Amaranthus retroflexus, activity level of plant damage (growth control rate) ([2]; Dosage 60 g a.i./ha): 6 (Level 6: growth control rate greater than or equal to 70% and less than 80%) |
| C=C[C@]1(C(=O)N[C@@H](C)C(=O)N(C)OC)CC(c2cc(Cl)cc(Br)c2)=NO1 | 9 |  |  | 9 | 9 |  |  | Avena fatua, activity level of plant damage (growth control rate) ([2]; Dosage 240 g a.i./ha): 9 |
| C=C(C)[C@]1(C(=O)N[C@@H](C)C(=O)NOc2ccccc2)CC(c2cc(F)cc(F)c2)=NO1 | 9 | 8 (Level 8: growth control rate greater than or equal to 90% and less than 100%) | 5 (Level 5: growth control rate greater than or equal to 50% and less than 70%) | 9 | 9 |  |  |  |
| C=C(C)[C@]1(C(=O)N[C@H](C(=O)NOCC)C2CC2)CC(c2cc(F)cc(Cl)c2)=NO1 |  | 8 (Level 8: growth control rate greater than or equal to 90% and less than 100%) | 8 (Level 8: growth control rate greater than or equal to 90% and less than 100%) |  |  | 9 | 6 (Level 6: growth control rate greater than or equal to 70% and less than 80%) | Amaranthus retroflexus, activity level of plant damage (growth control rate) ([2]; Dosage 60 g a.i./ha): 6 (Level 6: growth control rate greater than or equal to 70% and less than 80%) |
| C=C(C)[C@]1(C(=O)N[C@@H](C)C(=O)N2CCCO2)CC(c2cc(Cl)cc(Cl)c2)=NO1 | 9 | 8 (Level 8: growth control rate greater than or equal to 90% and less than 100%) | 8 (Level 8: growth control rate greater than or equal to 90% and less than 100%) | 9 |  |  |  | Amaranthus retroflexus, activity level of plant damage (growth control rate) ([2]; Dosage 60 g a.i./ha): 6 (Level 6: growth control rate greater than or equal to 70% and less than 80%) |
| C=C[C@]1(C(=O)N[C@@H](C)C(=O)N(C)OC)CC(c2cc(F)cc(F)c2)=NO1 |  |  |  |  |  |  |  | Avena fatua, activity level of plant damage (growth control rate) ([2]; Dosage 240 g a.i./ha): 9; activity level of plant damage (growth control rate), Descurainia sophia ([1]; Dosage 250 g a.i./ha): 9; activity level of plant damage (growth control rate), Digitaria sanguinalis ([1]; Dosage 250 g a.i./ha): 9; activity level of plant damage (growth control rate), Lolium multiflorum ([1]; Dosage 250 g a.i./ha): 9; activity level of plant damage (growth control rate), Setaria viridis ([1]; Dosage 250 g a.i./ha): 9 |
| C=C(C)[C@]1(C(=O)N[C@@H](C)C(=O)NOCC2=CCCC2)CC(c2cc(F)cc(Cl)c2)=NO1 |  | 8 (Level 8: growth control rate greater than or equal to 90% and less than 100%) | 6 (Level 6: growth control rate greater than or equal to 70% and less than 80%) |  |  | 9 | 9 |  |
| C=C(C)[C@]1(C(=O)N[C@@H](C)C(=O)NOCC(F)F)CC(c2cc(F)cc(F)c2)=NO1 | 8 (Level 8: growth control rate greater than or equal to 90% and less than 100%) | 8 (Level 8: growth control rate greater than or equal to 90% and less than 100%) | 6 (Level 6: growth control rate greater than or equal to 70% and less than 80%) | 9 | 9 |  |  |  |
| C=C(C)[C@@]1(C(=O)N[C@@H](C)C(=O)N(C)OC)CC(c2cc(F)cc(Br)c2)=NO1 | 9 |  |  | 9 | 8 (Level 8: growth control rate greater than or equal to 90% and less than 100%) |  |  | Digitaria sanguinalis, activity level of plant damage (growth control rate) ([2]; Dosage 240 g a.i./ha): 6 (Level 6: growth control rate greater than or equal to 70% and less than 80%); Echinochloa crus-galli, activity level of plant damage (growth control rate) ([2]; Dosage 240 g a.i./ha): 5 (Level 5: growth control rate greater than or equal to 50% and less than 70%); activity level of plant damage (growth control rate), Descurainia sophia ([1]; Dosage 240 g a.i./ha): 9 |
| C=CC1(C(=O)N[C@@H](C)C(=O)N(C)OC)CC(c2cc(F)cc(Cl)c2)=NO1 (stereo partly drawn) | 7 (Level 7: growth control rate greater than or equal to 80% and less than 90%) |  |  | 7 (Level 7: growth control rate greater than or equal to 80% and less than 90%) | 7 (Level 7: growth control rate greater than or equal to 80% and less than 90%) |  |  | Avena fatua, activity level of plant damage (growth control rate) ([2]; Dosage 240 g a.i./ha): 9 |
| C=C(C)[C@]1(C(=O)N[C@@H](CC)C(=O)NOCC)CC(c2cc(F)cc(F)c2)=NO1 | 9 | 9 | 6 (Level 6: growth control rate greater than or equal to 70% and less than 80%) | 9 | 9 |  |  | activity level of plant damage (growth control rate), Descurainia sophia ([1]; Dosage 240 g a.i./ha): 6 (Level 6: growth control rate greater than or equal to 70% and less than 80%) |
| C#CC[C@H](NC(=O)[C@@]1(C(=C)C)CC(c2cc(F)cc(Cl)c2)=NO1)C(=O)NOCC |  | 8 (Level 8: growth control rate greater than or equal to 90% and less than 100%) | 8 (Level 8: growth control rate greater than or equal to 90% and less than 100%) |  |  | 9 | 9 |  |
| C=C(C)[C@]1(C(=O)N[C@@H](C)C(=O)NOc2ccc(Cl)cc2)CC(c2cc(F)cc(F)c2)=NO1 |  | 8 (Level 8: growth control rate greater than or equal to 90% and less than 100%) | 8 (Level 8: growth control rate greater than or equal to 90% and less than 100%) |  |  | 9 | 9 |  |
| C=C(C)[C@]1(C(=O)N[C@@H](C)C(=O)NOCCCOC)CC(c2cc(F)cc(Cl)c2)=NO1 |  | 8 (Level 8: growth control rate greater than or equal to 90% and less than 100%) | 8 (Level 8: growth control rate greater than or equal to 90% and less than 100%) |  |  | 9 | 9 |  |

From patent publication EP4837910A1, “ISOXAZOLINE COMPOUND AND PREPARATION METHOD THEREFOR, HERBICIDAL COMPOSITION, AND USE” (dated 2026)
